In this test the target is Proto-oncogene tyrosine-protein kinase Src (Homo sapiens, UniProt P12931). As to the kind of experiment: Binding affinity for Src protein tyrosine kinase SH2 domain using surface plasmon resonance (SPR) assay.

Chains of the proteins cited; added tags and fusions are not shown. Lines headed by an entry give the natural chain unless they say otherwise; changes in a name come on top.
UniProt P12931: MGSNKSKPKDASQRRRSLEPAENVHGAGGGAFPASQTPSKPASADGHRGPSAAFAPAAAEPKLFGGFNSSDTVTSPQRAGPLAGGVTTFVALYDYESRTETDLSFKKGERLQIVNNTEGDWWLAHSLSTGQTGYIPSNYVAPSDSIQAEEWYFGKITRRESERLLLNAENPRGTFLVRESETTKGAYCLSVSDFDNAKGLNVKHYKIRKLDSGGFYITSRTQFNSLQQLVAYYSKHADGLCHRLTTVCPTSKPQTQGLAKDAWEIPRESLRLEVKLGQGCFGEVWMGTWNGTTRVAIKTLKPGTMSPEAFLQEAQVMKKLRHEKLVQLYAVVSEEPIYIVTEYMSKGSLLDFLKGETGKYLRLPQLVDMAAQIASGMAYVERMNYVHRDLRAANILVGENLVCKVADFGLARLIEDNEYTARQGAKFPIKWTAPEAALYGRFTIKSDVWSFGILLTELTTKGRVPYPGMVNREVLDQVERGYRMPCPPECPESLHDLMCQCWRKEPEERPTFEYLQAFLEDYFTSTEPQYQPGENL

A word on the IC50: it is the concentration needed to halve the response being measured. Low values mean greater potency in that assay, high ones weaker potency in that assay. Consider `CC[C@H](C)[C@H](NC(=O)[C@H](CCC(=O)O)NC(=O)[C@H](CCC(=O)O)NC(=O)[C@H](Cc1ccc(OP(=O)(O)O)cc1)NC(C)=O)C(=O)O`, for which the IC50 was determined as 9 nM.
